Binding of CDR-mutated scFvs to a peptide of the spike HR2 region

Binding partner: SARS-CoV-2 spike HR2 peptide, sequence PDVDLGDISGINAS.

Ab-14 is the parent antibody, in scFv form: VH, then a 15-residue (Gly4Ser)3 linker, then VL. The light chain is unchanged in all variants.
VH: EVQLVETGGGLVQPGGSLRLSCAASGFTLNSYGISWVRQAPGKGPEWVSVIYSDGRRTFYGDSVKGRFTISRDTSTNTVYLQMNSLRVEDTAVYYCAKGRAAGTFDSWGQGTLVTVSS
VL: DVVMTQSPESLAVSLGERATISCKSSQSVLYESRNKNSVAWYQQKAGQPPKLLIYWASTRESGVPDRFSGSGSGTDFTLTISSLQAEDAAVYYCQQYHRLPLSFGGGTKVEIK

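The parent was found by panning a naive human phage display library on the peptide. Designed CDR sequences, proposed from the first random library and measured here. Group labels follow the data file (Ctrl: baseline library sampled from a position-specific scoring matrix, with some repeated check sequences; Rand: our label for a block that the file lists under HC and that is probably the random mutants of the ten best first-round binders; En: ensemble of fine-tuned language models; GP: Gaussian process model; GPLM: also part of the Gaussian process libraries; HC: hill climbing; Gen: genetic algorithm; Gibbs: Gibbs sampling; a sequence that several methods proposed may carry one label only). In AlphaSeq, yeast of one mating type display the scFv and yeast of the other type display the target. After mating in shaken culture at 30 °C for 16 h, diploids were selected and their barcode pairs sequenced. Scores were corrected for input abundance and mapped to Kd with protein pairs of known affinity run in the same pool. Each pool was mated in six replicate cultures.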

Variants are written as CDR1, CDR2 and CDR3 of the heavy chain (limits as in the source). Parent: GFTLNSYGIS, VIYSDGRRTFYGDSVK, GRAAGTFDS.
This list holds designs with at most six substitutions.
Values are apparent Kd, the geometric mean of the replicates that gave a signal; lower means stronger binding.
"nd" marks a missing value. The strain was present, yet no cells mated with the target were sequenced in any replicate, which points to weak or no binding.
The authors averaged sequences with at least three values out of six and counted those with two or fewer as poor binders.
Three control strains display no target. For all heavy chain designs, 1% of the pairings with them gave a signal, with a median of 120 nM and one signal in twenty below 7.0 nM, so weak values seen in few replicates may be background. The control count says in how many pairings with the empty strains this scFv gave a signal.
Values of this round are not directly comparable with the first-round values of the same sequences.
Of ten entries with the parent sequence, four were seen in most replicates (averages 2.2 nM to 240 nM), three in one and three in none, so single entries are noisy.

Variant GFTLNSYGIS / VIYSDGRRTFYGDSVK / GRAAGTFKS [Ctrl] showed nd (0 of 6 replicates; controls 0 of 18). Variant GFTLNSYGIP / VIYADGRRTFYGDSVK / GRAAGTNKS [Rand] showed nd (0 of 6 replicates; controls 2 of 18). With GFDLEEYGIS / VIYADGRRTFYSDSVK / GEAAGTFDS [En_HC] the result was 400 pM (6 of 6 replicates; controls 0 of 18). Variant GFSLNDYGIS / VIYSDGRRTFYKDSVK / GRTAGTFDS [GPLM_Gen] gave 2.8 nM (5 of 6 replicates; controls 1 of 18). Variant GFSLNDYGIS / VIYSDGRRTFYQDSVK / GRTAGTFDS [GPLM_Gen] showed 380 pM (6 of 6 replicates; controls 0 of 18). Variant GFSLNDYGIS / VIYSDGRRTFYGDSVK / GRLAGTFDS [GPLM_Gen] gave 660 pM (6 of 6 replicates; controls 0 of 18).

Variant GFHVNSYGIS / VIYSDGRRTFYGDSVK / GRAAGTFDS [Ctrl] gave nd (0 of 6 replicates; controls 0 of 18). Variant GFTLNQYGIS / VIYSDGRRTFYSDSVK / GDAAGTFDS [GPLM_HC] gave 1.1 nM (6 of 6 replicates; controls 0 of 18). With GFTLNEYGIS / VIYSDGRRTFYGDSVK / GRHAGTFDT [GPLM_Gen] the result was 9.9 nM (6 of 6 replicates; controls 0 of 18). For GFTLDSYGIS / VIYSDGRRTFYIDSVK / GRAAGTFDV [GP_HC], the assay gave 3.8 nM (3 of 6 replicates; controls 0 of 18). Variant GFTLNDYGIS / VIYSDGRRTFYGDSVK / GRHAGTFDT [GPLM_Gen] showed 2.7 nM (6 of 6 replicates; controls 0 of 18). Variant GFTVNSYGIS / VIYSDGRRTFYYDEVK / GRAYGTFDS [Ctrl] gave nd (0 of 6 replicates; controls 0 of 18).

For GFELNSYGIS / VIYSDGRRTFYVDSVK / GGVAGTFDT [GP_Gibbs], the assay gave 15 nM (6 of 6 replicates; controls 0 of 18). Variant GFDLNSYGIS / VIYSDGWRTFYGDSVK / GRTAGTFDS [GP_Gen] gave 9.7 nM (6 of 6 replicates; controls 0 of 18). With GFTLNEYGIS / VIYSDGRRTFYTDSVK / GFAAGTFDK [GP_HC] the result was 2.5 nM (6 of 6 replicates; controls 2 of 18). For GFGLNEYGIS / VIYSDGRRTFYQDSVK / GRAAGTFDS [GP_Gen], the assay gave nd (0 of 6 replicates; controls 0 of 18). With GFTLNSFGIS / VIYSDGRRTFYGDSVK / GRVEGAFDS [Ctrl] the result was nd (0 of 6 replicates; controls 0 of 18). With GRTLDKSGIS / VIYSDGRRTFYGDSVK / GRAAGTFDG [Ctrl] the result was nd (0 of 6 replicates; controls 0 of 18).

With GFTLNSYGIS / VIYSDGRRTFYGDSYK / GWAAGTFDS [Ctrl] the result was nd (0 of 6 replicates; controls 0 of 18). For GFTLNSYGIS / VIYSDGRRTFYGDDVK / GNEAGTFDS [GPLM_Gibbs], the assay gave 1.8 nM (6 of 6 replicates; controls 0 of 18). With GFHLNSYGIS / VIYSDGRRTFYADSVK / GKEAGTFDS [GPLM_Gibbs] the result was 4.3 nM (4 of 6 replicates; controls 0 of 18). Variant YFTLNSYGIS / VIYSDGRRTFYSDSVK / GEAAGTFDS [GPLM_Gen] gave nd (0 of 6 replicates; controls 0 of 18). Variant GFDLNSYGIS / VIYSDGRRTFYGDSVK / GRAAATFDV [GP_Gibbs] showed nd (0 of 6 replicates; controls 0 of 18). Variant GFELNSYGIS / VIYSDGRRTFYGDSVK / GRAAGTFIS [Ctrl] showed 3.9 nM (1 of 6 replicates; controls 0 of 18).

Variant GFELNSYGIS / VIYSDGRRTFYGDSVK / GKIAGTFDS [GPLM_Gibbs] gave 6.2 nM (6 of 6 replicates; controls 1 of 18). Variant GFTLNEYGIS / VIYSDGRRTFYGDSVK / GRAAGTFNT [GP_HC] gave 1.2 nM (4 of 6 replicates; controls 0 of 18). For GFNLNSYGIS / VIYSDGRRTAYGDSVK / DRAAGTFDS [Ctrl], the assay gave nd (0 of 6 replicates; controls 1 of 18). Variant GFKLNSYGIS / VIYSDGRRTFYGDSVK / GKNAGTFDS [GP_Gibbs] gave 160 nM (2 of 6 replicates; controls 0 of 18). With GATLNSYGIS / VIYSDGKRTFYGDSVK / GKAAGTFDS [Ctrl] the result was 53 nM (2 of 6 replicates; controls 0 of 18). For GFSLNSYGIS / VIYSDGRRTFYKDSVK / GRNAGTFDS [GPLM_Gen], the assay gave 14 nM (6 of 6 replicates; controls 0 of 18).

Variant GFTLNSYGIS / VIYSDGRRTFYGDEVK / GMAAGTFDS [Ctrl] showed nd (0 of 6 replicates; controls 0 of 18). Variant GFQLNEYGIS / VIYSDGRRTFYGDSVK / GRTAGTFDS [GPLM_Gen] showed 26 nM (5 of 6 replicates; controls 0 of 18). For GFSLNSYGIS / VIYSDGRRTFYGDSVK / GRAYGTKDW [Ctrl], the assay gave 88 nM (1 of 6 replicates; controls 0 of 18). Variant GFTLESYGIS / VIYSDGRRTFYGDKVK / GKTAGTFDS [GP_Gibbs] gave 2.5 nM (6 of 6 replicates; controls 0 of 18). Variant GFDLNSYGIS / VIYSDGRRTFYDDSVK / GQAAGTFDN [GP_Gibbs] showed 37 nM (5 of 6 replicates; controls 0 of 18). Variant GFSLNDYGIS / VIYSDGKRTFYADSVK / GRAAGTFDS [GP_Gibbs] showed 1.5 nM (6 of 6 replicates; controls 1 of 18).

With GFTLNSYGIS / VIYADGRRTFYGDSVK / GRAAGTFIS [GPLM_Gen] the result was nd (0 of 6 replicates; controls 0 of 18). For GFSLNSYGIS / VIYSDGRRTAYGDSVK / GRQAGTFDS [GPLM_Gen], the assay gave 2.5 nM (5 of 6 replicates; controls 0 of 18). Variant GFSLNSYGIS / VIYSDGRRTFYVDNVK / GRTAGTFDS [GPLM_Gen] gave 71 nM (5 of 6 replicates; controls 0 of 18). Variant GFTHNEYGIS / VIYSDGRRTFYTDSVK / GEQAGTFDS [Rand] gave nd (0 of 6 replicates; controls 0 of 18). Variant GFTRNSYGIS / VIYSDGRRTFYGDSVK / GRAAGGFDS [Ctrl] gave 7.4 nM (6 of 6 replicates; controls 0 of 18). Variant GFTLNEYGIS / VIYSDGRRTFYGDSVK / GRNAGTFDA [GP_HC] gave 560 pM (6 of 6 replicates; controls 0 of 18).

Variant GFNLNSYGIS / VIYSDGRRTFYGDSVK / GVNAGTFDS [GP_Gibbs] showed 5.1 nM (6 of 6 replicates; controls 0 of 18). With GFSLNNYGIS / VIYSDGRRTFYGDSVK / GSAAGTFDS [GPLM_Gen] the result was 2.3 nM (6 of 6 replicates; controls 0 of 18). With GFVLNDYGIS / VIYSDGRRTYYGDSVK / GRAAGTFDS [GP_HC] the result was 42 nM (6 of 6 replicates; controls 0 of 18). For GFALNTYGIS / VIYSDGRRTFYGDSVK / GRAAGTFFS [Ctrl], the assay gave nd (0 of 6 replicates; controls 0 of 18). With GFDLNTYGIS / VIYSDGRRTFYADKVK / GRTAGTFDS [GP_Gibbs] the result was 600 pM (6 of 6 replicates; controls 0 of 18). Variant GFTLNSYGIS / VIYADGRRTFYGDSVK / GIAAGTFDS [Ctrl] gave nd (0 of 6 replicates; controls 0 of 18).

With GYQLNSYGIS / VIYSDGRRTFYGDSVK / GRNAGTFDS [GP_HC] the result was nd (0 of 6 replicates; controls 0 of 18).

Data: MIT Lincoln Laboratory AlphaSeq set, Li et al. 2023, doi:10.1038/s41467-023-39022-2, as distributed in FLAb.